In this experiment the target is human σ1 receptor (Homo sapiens, UniProt Q99720). Set-up: key to the marks not given beside the values. To be noted: combined class for both Ki-σ1 (assay A1) and Ki-μ (assay A2); human receptors, radioligand binding.

By UniProt entry, the sequences of proteins in these tests, tags left out.
UniProt Q99720, whole entry: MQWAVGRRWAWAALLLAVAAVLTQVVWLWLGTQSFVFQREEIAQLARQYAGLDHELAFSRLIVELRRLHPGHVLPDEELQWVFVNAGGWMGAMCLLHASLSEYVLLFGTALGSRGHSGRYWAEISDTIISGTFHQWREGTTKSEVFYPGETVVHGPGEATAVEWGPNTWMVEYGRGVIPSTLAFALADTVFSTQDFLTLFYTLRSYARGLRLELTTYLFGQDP

Each structure is given as a SMILES string.

Turning to `CCC(=O)N(CC1(N2CCN(Cc3ccccc3)CC2)CCNCC1)c1ccccc1`, the “μ and σ1 dual (binding to the σ1 receptor and the μ-opioid receptor expressed as Ki)” value was “++”.

(Values after patent US10428051B2 (priority 2015, dated 2019).)
